The text below walks through data of ChEMBL document CHEMBL5625274, “Improved synthesis, molecular modeling and anti-inflammatory activity of new fluorinated dihydrofurano-naphthoquinone compounds” (Bioorg Med Chem Lett, 2024).

Series [1] is described as follows: in vitro. The following applies: mouse, RAW264.7 cells.
Series [2] in a line: in vitro. The conditions noted are these: mouse, RAW264.7 cells; at 32 µg/mL.
Series [3] can be described thus: in vitro. The conditions noted are these: mouse, RAW264.7 cells; at 8 µg/mL.
Series [4] is described as follows: in vitro. The conditions noted are these: mouse, RAW264.7 cells; at 2 µg/mL.
Series [5] in a line: in vitro. The conditions noted are these: mouse, RAW264.7 cells; at 0.5 µg/mL.

Regarding `CNC(=N)NCCC[C@H](N)C(=O)O` [TILARGININE], the viability at 128 ug/mL in “in vitro [1]” turned out to be 88%. In the series “in vitro [2]”, this molecule yielded a viability at 32 ug/mL of 100%. Further, in “in vitro [3]”, the viability at 8 ug/mL stood at 100%. In “in vitro [4]”, this molecule yielded a viability at 2 ug/mL of 100%. The molecule also gave a viability at 0.5 ug/mL in “in vitro [5]” of 100%.
